Results on three compounds are retold here after US20060172958A1, “Phospholipid scramblase 3” (priority 2003, published 2006).

One experiment relates to HeLa-PLS3(F258V) cells. Briefly: TUNEL apoptosis assay with flow cytometry. Format: cell-based. As to the method:
Apoptotic assays were performed with annexinV-PE (BD-PharMingen) per manufacturer's protocol. The TUNEL assay (terminal deoxynucleotidyltransferase-mediated dUTP-biotin nick end labeling) was performed according to the manufacturer's protocol (Roche, Switzerland).
A mutant of PLS3 was also constructed by mutating Phe258 to Val. This Phe258 is in a highly conserved calcium-binding motif, and mutation of the corresponding Phe at PLS1 completely abolishes the activity of PLS1.
(In flow cytometry, cells or beads pass a laser one at a time.)

Experiment [1] relates to 293-vector, 293-PLS3 and 293-PLS3(F258V) cells. Briefly: Growth curves (cell counts by trypan blue exclusion). Format: cell-based. The settings on record: three different Na3N concentrations. As to the method: FIG. 13. […] Cells were plated on day 0, and counted at days 1, 2 by trypan blue exclusion. (d) Growth curves in the presence of Na3N at three different concentrations.
Next, we incubated these cells in the presence of Na3N, an uncoupler of oxidative phosphorylation (Simbeni et al., 1990), and compared their growth.

Regarding `Cn1c2ccccc2c2c3c(c4c5ccccc5n(CCC#N)c4c21)CNC3=O` [Go6976], in the experiment on HeLa-PLS3(F258V) cells (200 nM PMA and 200 nM Go6976, 2 hours), the “left shift (decreased apoptosis) by PMA, with Go6976 added” value is “inhibited”. With `[N-]=[N+]=[N-].[Na+]` [Na3N], the cell growth rate result in experiment [1] was “same slow growth rate”. `CCCCCCCCCCCCCC(=O)O[C@@H]1[C@@H](C)[C@@]2(O)[C@@H](C=C(CO)C[C@]3(O)C(=O)C(C)=C[C@@H]23)[C@@H]2C(C)(C)[C@]12OC(C)=O` [PMA]: the “apoptosis (TUNEL)” value in the experiment on HeLa-PLS3(F258V) cells (200 nM PMA, 2 hours) is “decreased apoptosis”.
